Reference: PMC8934631 (2022)

How the values were obtained:
MEF2A (1–92) = biological target: T1, MEF2A (1–92) (UniProt Q02078 1-92); experiment: FP
T1 chain: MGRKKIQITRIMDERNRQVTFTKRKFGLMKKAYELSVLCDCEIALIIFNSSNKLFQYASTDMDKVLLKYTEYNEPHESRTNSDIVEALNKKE

MEF2D (1–95) = biological target: T2, MEF2D (1–95) (UniProt Q14814 1-95); experiment: FP
T2 chain: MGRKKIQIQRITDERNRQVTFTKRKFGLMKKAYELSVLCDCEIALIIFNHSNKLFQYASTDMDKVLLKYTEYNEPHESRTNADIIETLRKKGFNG

Kd (MEF2A (1–92)): 17 µM
Kd (MEF2D (1–95)): 16 µM
B1: F-pHDAC4 (aa 170–183, fluorescein-GSGEVKMKLQEFVLNKK-CONH2) (peptide)
peptide: GSGEVKMKLQEFVLNKK
modifications: fluorescein on the N-terminus (5(6)-carboxyfluorescein); C-terminal amide (CONH2)
